Values of other authors in patent publication US20230114177A1, “NOVEL DEUTERIUM-SUBSTITUTED PYRIMIDINE DERIVATIVE AND PHARMACEUTICAL COMPOSITION COMPRISING SAME” (ONCOBIX CO., LTD., priority 2019, published 2023).

Tested on: ALK-positive non-small cell lung cancer
Details: clinical study, cited from earlier work

SMILES: C[C@@H](Oc1cc(-c2cnn(C3CCNCC3)c2)cnc1N)c1c(Cl)ccc(F)c1Cl [crizotinib]
- tumor response rate (patients with mainly adenocarcinoma tissue-type lung cancer): about 65%
- progression-free survival period (3 months in the chemotherapy group): 7.7 months
- most common adverse events reported: visual field abnormality, diarrhea, vomiting, edema, nausea
